These compounds were tested against Lactase/phlorizin hydrolase (Homo sapiens, UniProt P09848) (assay: Inhibition of lactase by HPLC).

The chains behind the UniProt entries cited, without tags or fusion partners. Residues count along the entry.
UniProt P09848, 869-1927 limits assumed: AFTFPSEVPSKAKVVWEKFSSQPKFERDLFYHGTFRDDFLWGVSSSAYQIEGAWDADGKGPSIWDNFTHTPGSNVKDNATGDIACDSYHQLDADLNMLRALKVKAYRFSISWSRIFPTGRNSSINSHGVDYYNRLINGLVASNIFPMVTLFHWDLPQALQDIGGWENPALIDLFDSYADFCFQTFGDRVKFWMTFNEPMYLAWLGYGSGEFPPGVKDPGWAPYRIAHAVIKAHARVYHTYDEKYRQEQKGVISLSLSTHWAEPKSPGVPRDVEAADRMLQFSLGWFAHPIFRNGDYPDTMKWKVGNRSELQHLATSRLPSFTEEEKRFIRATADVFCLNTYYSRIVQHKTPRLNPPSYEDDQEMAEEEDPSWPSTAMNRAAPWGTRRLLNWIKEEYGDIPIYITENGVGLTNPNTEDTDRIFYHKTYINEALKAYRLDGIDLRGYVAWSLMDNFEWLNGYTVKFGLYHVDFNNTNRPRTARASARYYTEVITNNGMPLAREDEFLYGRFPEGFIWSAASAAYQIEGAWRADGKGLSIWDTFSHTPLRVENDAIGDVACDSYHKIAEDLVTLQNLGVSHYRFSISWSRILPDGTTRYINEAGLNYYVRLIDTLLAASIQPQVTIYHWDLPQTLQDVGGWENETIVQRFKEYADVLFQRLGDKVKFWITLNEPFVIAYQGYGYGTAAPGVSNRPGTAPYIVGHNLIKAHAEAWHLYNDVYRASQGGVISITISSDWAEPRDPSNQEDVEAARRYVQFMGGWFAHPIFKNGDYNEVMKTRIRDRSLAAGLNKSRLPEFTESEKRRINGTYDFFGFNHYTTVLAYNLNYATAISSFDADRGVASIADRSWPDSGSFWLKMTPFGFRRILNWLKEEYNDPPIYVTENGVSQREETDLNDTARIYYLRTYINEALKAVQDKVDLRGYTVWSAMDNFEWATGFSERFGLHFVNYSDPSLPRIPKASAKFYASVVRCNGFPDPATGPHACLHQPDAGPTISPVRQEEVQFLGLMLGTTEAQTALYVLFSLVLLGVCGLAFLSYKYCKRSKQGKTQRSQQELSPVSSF

Row | IC50 | SMILES
1 | 62 µM | OC[C@H]1NC[C@H](O)[C@@H](O)[C@@H]1O [DUVOGLUSTAT]
2 | 50 µM | OC[C@H]1NC[C@H](O)[C@@H](O)[C@H]1O
3 | > 1000 µM | OC[C@@H]1NC[C@H](O)[C@@H](O)[C@@H]1O

— ChEMBL document CHEMBL1154826, “Dual-action lipophilic iminosugar improves glycemic control in obese rodents by reduction of visceral glycosphingolipids and buffering of carbohydrate assimilation” (J Med Chem, 2010)
